# Measurements: patent US20120225837A1, “MEDICINAL AGENT FOR DISEASE ASSOCIATED WITH EPSTEIN-BARR VIRUS, AND METHOD FOR SCREENING OF THE MEDICINAL AGENT” (Kyoto University, priority 2007, published 2012)
# Legend:
# 143B/EB virus-TK cells = settings: read-out: CC50 143B/EB Virus-TK; MTT assay, 5 days of culture
# Description: (§1) At first, a primer was designed on the basis of the data base information of NCBI, followed by extracting DNA from B95a cells (J. Virol. 1990; 64(2): 700-5), and the TK gene of an EB virus was amplified by PCR method and cloned in the multicloning site of an expression plasmid vector pCI-neo (pCI-EB-TKneo). Similarly, human-TK gene was also amplified by PCR method and cloned (pCI-huTKneo). Whether the cloned gene fragment was a desired gene or not was judged by determining the base sequence.
# (§2) Then, TK-defect human osteosarcoma cells (143B) was transfected by lipofection method (Proc. Natl. Acad. Sci. USA 1987 November; 84(21): 7413-7) with the plasmid vector capable of expressing EB virus-TK gene or the plasmid vector capable of expressing human-TK gene, namely, pCI-EB-TKneo or pCI-huTKneo, and cells having each plasmid introduced therein were selected by the use of neomycin.
# (§3) The drug sensitivity of 143B/EB virus-TK, 143B/hu-TK, 143B TK(−) cells and EB virus persistent infection cells was determined on the basis of the cytotoxicity of each drug. […] After 5 days of culture, the number of surviving cells was determined by MTT [3-(4,5-dimethylthiazol-2-yl)-2,5-diphenyltetrazolium bromide] assay. […]
# 143B/hu-TK cells = test: MTT cytotoxicity assay, cell having human-TK gene introduced; type: cell-based
# Description: as §1, §2, §3
substance,measurement,setting,value
β-D-2-methylene-4-thio-β-D-erythropentofuranosyl)thymine [4′-S-DMDT],CC50,143B/EB virus-TK cells,> 100 µM
same,CC50,143B/hu-TK cells,> 100 µM
